CycPeptMPDB entries from one study

Values of Kelly et al. 2021, doi:10.1021/jacs.0c06115, as listed in CycPeptMPDB.

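Lipid, pH, incubation time, direction and concentration are not recorded in the data file. Other peptides of the study may be missing here. Peptides that the database sets to -10, its floor, are left out.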

PAMPA is the parallel artificial membrane permeability assay, which has no cells and reads passive diffusion. MDCK: transport across canine kidney epithelial cells. Values are log10 P with P in cm/s, so -5 is more permeable than -7. Cells with "–" have no entry in this list.

SMILES,PAMPA (log10 cm/s),MDCK (log10 cm/s)
CC(=O)N1CCC[C@H]1C(=O)N[C@@H]1C(=O)N[C@H](CC(C)C)C(=O)N(C)[C@@H](CC(C)C)C(=O)N(C)[C@@H](CC(C)C)C(=O)N(C)[C@H](CC(C)C)C(=O)N(C)[C@@H](C)C(=O)N[C@@H](CC(C)C)C(=O)N2CCC[C@@H]2C(=O)O[C@@H]1C,-5.12,–
CC(=O)N1CCC[C@H]1C(=O)N(C)[C@H](CC(C)C)C(=O)N[C@@H]1C(=O)N[C@H](CC(C)C)C(=O)N[C@@H](CC(C)C)C(=O)N[C@H](CC(C)C)C(=O)N(C)[C@H](C)C(=O)N[C@@H](CC(C)C)C(=O)N2CCC[C@H]2C(=O)O[C@@H]1C,-5.06,-4.86
CC(=O)N1CCC[C@H]1C(=O)N(C)[C@@H](CC(C)C)C(=O)N[C@@H]1C(=O)N[C@@H](CC(C)C)C(=O)N(C)[C@H](CC(C)C)C(=O)N[C@H](CC(C)C)C(=O)N[C@H](C)C(=O)N[C@@H](CC(C)C)C(=O)N2CCC[C@@H]2C(=O)O[C@@H]1C,-5.89,–
CC(=O)N1CCC[C@@H]1C(=O)N(C)[C@@H](CC(C)C)C(=O)N[C@@H]1C(=O)N(C)[C@@H](CC(C)C)C(=O)N[C@@H](CC(C)C)C(=O)N[C@@H](CC(C)C)C(=O)N(C)[C@@H](C)C(=O)N[C@@H](CC(C)C)C(=O)N2CCC[C@H]2C(=O)O[C@@H]1C,-6.74,–
CC(=O)N1CCC[C@@H]1C(=O)N(C)[C@H](CC(C)C)C(=O)N[C@@H]1C(=O)N[C@H](CC(C)C)C(=O)N(C)[C@H](CC(C)C)C(=O)N[C@H](CC(C)C)C(=O)N[C@H](C)C(=O)N[C@@H](CC(C)C)C(=O)N2CCC[C@@H]2C(=O)O[C@@H]1C,-6.85,–
CC(=O)N1CCC[C@@H]1C(=O)N(C)[C@@H](CC(C)C)C(=O)N[C@@H]1C(=O)N[C@@H](CC(C)C)C(=O)N(C)[C@H](CC(C)C)C(=O)N[C@H](CC(C)C)C(=O)N(C)[C@H](C)C(=O)N[C@H](CC(C)C)C(=O)N2CCC[C@@H]2C(=O)O[C@@H]1C,-5.80,–
CC(=O)N1CCC[C@@H]1C(=O)N(C)[C@H](CC(C)C)C(=O)N[C@@H]1C(=O)N[C@H](CC(C)C)C(=O)N(C)[C@H](CC(C)C)C(=O)N(C)[C@H](CC(C)C)C(=O)N(C)[C@H](C)C(=O)N[C@H](CC(C)C)C(=O)N2CCC[C@@H]2C(=O)O[C@@H]1C,-5.44,–
CC(=O)N[C@@H]1C(=O)N2CCC[C@H]2C(=O)N(C)[C@H](CC(C)C)C(=O)N(C)[C@H](CC(C)C)C(=O)N(C)[C@@H](CC(C)C)C(=O)N(C)[C@@H](CC(C)C)C(=O)N(C)[C@H](C)C(=O)N[C@@H](CC(C)C)C(=O)N2CCC[C@@H]2C(=O)O[C@@H]1C,-5.38,–
CC(=O)N1CCC[C@@H]1C(=O)N(C)[C@H](CC(C)C)C(=O)N[C@@H]1C(=O)N(C)[C@H](CC(C)C)C(=O)N[C@H](CC(C)C)C(=O)N(C)[C@H](CC(C)C)C(=O)N[C@@H](C)C(=O)N[C@@H](CC(C)C)C(=O)N2CCC[C@H]2C(=O)O[C@@H]1C,-6.76,–
CC(=O)N1CCC[C@H]1C(=O)N(C)[C@H](CC(C)C)C(=O)N[C@@H]1C(=O)N[C@H](CC(C)C)C(=O)N[C@H](CC(C)C)C(=O)N[C@@H](CC(C)C)C(=O)N(C)[C@H](C)C(=O)N[C@H](CC(C)C)C(=O)N2CCC[C@H]2C(=O)O[C@@H]1C,-6.09,–
CC(=O)N1CCC[C@H]1C(=O)N(C)[C@H](CC(C)C)C(=O)N[C@@H]1C(=O)N[C@@H](CC(C)C)C(=O)N(C)[C@H](CC(C)C)C(=O)N[C@H](CC(C)C)C(=O)N(C)[C@H](C)C(=O)N[C@@H](CC(C)C)C(=O)N2CCC[C@@H]2C(=O)O[C@@H]1C,-5.48,–
CC(=O)N1CCC[C@@H]1C(=O)N(C)[C@H](CC(C)C)C(=O)N[C@@H]1C(=O)N[C@H](CC(C)C)C(=O)N(C)[C@@H](CC(C)C)C(=O)N(C)[C@@H](CC(C)C)C(=O)N[C@@H](C)C(=O)N[C@@H](CC(C)C)C(=O)N2CCC[C@@H]2C(=O)O[C@@H]1C,-5.30,–
CC(=O)N1CCC[C@@H]1C(=O)N(C)[C@H](CC(C)C)C(=O)N[C@@H]1C(=O)N[C@H](CC(C)C)C(=O)N(C)[C@@H](CC(C)C)C(=O)N[C@@H](CC(C)C)C(=O)N(C)[C@@H](C)C(=O)N[C@H](CC(C)C)C(=O)N2CCC[C@H]2C(=O)O[C@@H]1C,-5.07,–

A selection of 2 entries from above:

| SMILES | PAMPA (log10 cm/s) | MDCK (log10 cm/s) |
|---|---|---|
| CC(=O)N1CCC[C@@H]1C(=O)N(C)[C@H](CC(C)C)C(=O)N[C@@H]1C(=O)N(C)[C@H](CC(C)C)C(=O)N[C@H](CC(C)C)C(=O)N(C)[C@H](CC(C)C)C(=O)N[C@@H](C)C(=O)N[C@@H](CC(C)C)C(=O)N2CCC[C@H]2C(=O)O[C@@H]1C | -6.76 | – |
| CC(=O)N1CCC[C@H]1C(=O)N(C)[C@H](CC(C)C)C(=O)N[C@@H]1C(=O)N[C@H](CC(C)C)C(=O)N[C@H](CC(C)C)C(=O)N[C@@H](CC(C)C)C(=O)N(C)[C@H](C)C(=O)N[C@H](CC(C)C)C(=O)N2CCC[C@H]2C(=O)O[C@@H]1C | -6.09 | – |